# Experimental data taken from patent US6936585B2, “Corticotropin releasing factor 2 receptor agonists” (priority 2002, dated 2005).
# Experiments:
# [1] = target: T1, CRF1R (Homo sapiens, UniProt P34998); experiment: CRF1R agonist activation (EC50 / Emax), called comparative CRF binding; format: cell-based; settings: for Emax: read-out: CRF1R Emax
# T1 sequence (P34998 24-415): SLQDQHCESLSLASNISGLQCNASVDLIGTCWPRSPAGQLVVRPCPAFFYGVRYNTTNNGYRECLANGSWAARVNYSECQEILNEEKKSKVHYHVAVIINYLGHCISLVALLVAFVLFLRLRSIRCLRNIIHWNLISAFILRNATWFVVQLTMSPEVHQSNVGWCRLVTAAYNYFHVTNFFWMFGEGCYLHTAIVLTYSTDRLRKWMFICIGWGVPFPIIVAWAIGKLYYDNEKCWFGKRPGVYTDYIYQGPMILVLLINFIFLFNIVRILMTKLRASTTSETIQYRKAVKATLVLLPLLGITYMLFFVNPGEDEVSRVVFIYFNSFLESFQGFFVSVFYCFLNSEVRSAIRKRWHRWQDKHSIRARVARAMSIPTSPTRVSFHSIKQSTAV
# Procedure, shortened: (§1)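 Agonism is scored from cAMP rise, assayed in lysates or through CRE-driven reporter expression, after peptide contact with cells bearing human CRF2R or CRF1R, compared against vehicle-treated cells.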
# [2] = target: T2, CRF2R (Homo sapiens, UniProt Q13324); experiment: CRF2R agonist activation (EC50 / Emax), called comparative CRF binding; format: cell-based; settings: for Emax: read-out: CRF2R Emax
# T2 sequence (Q13324 1-411): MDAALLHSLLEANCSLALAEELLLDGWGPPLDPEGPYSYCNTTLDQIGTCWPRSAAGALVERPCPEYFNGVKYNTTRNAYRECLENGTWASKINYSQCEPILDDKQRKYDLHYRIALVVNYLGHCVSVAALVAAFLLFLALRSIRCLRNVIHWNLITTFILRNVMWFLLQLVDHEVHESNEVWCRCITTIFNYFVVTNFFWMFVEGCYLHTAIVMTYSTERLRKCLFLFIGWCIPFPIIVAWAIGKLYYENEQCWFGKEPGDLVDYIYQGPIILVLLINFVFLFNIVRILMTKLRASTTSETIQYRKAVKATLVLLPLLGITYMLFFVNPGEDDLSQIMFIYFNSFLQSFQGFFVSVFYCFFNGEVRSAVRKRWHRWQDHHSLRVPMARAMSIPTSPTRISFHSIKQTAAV
# Procedure, shortened: as §1
structure (smiles),measurement,setting,value
CC[C@H](C)[C@H](NC(=O)[C@@H](NC(=O)[C@H](CC(=O)O)NC(=O)[C@H](CC(C)C)NC(=O)[C@H](CC(C)C)NC(=O)[C@H](CC(C)C)NC(=O)[C@H](CCCNC(=N)N)NC(=O)[C@H](CC(N)=O)NC(=O)[C@H](CC(N)=O)NC(=O)[C@H](C)NC(=O)[C@H](C)NC(=O)[C@H](CCC(N)=O)NC(=O)[C@H](CCC(N)=O)NC(=O)[C@H](CCCCN)NC(=O)[C@H](CCC(=O)O)NC(=O)[C@H](CCCCN)NC(=O)[C@H](CCC(=O)O)NC(=O)[C@H](CCC(N)=O)NC(=O)[C@H](CCCCN)NC(=O)[C@H](CCC(=O)O)NC(=O)[C@@H](NC(=O)[C@H](CCC(=O)O)NC(=O)[C@@H](NC(=O)[C@H](CCSC)NC(=O)[C@H](CCCCN)NC(=O)[C@H](CCCNC(=N)N)NC(=O)[C@H](CC(C)C)NC(=O)[C@H](CC(C)C)NC(=O)[C@H](Cc1ccccc1)NC(=O)[C@H](Cc1ccc(O)cc1)NC(=O)[C@@H]1CCCN1C(=O)[C@H](CC(C)C)NC(=O)[C@H](CC(=O)O)NC(=O)[C@@H](NC(=O)[C@H](CO)NC(=O)[C@@H](NC(=O)[C@@H]1CCCN1C(=O)[C@@H]1CCCN1C(=O)CNC(=O)[C@@H]1CCC(=O)N1)[C@@H](C)CC)[C@@H](C)CC)[C@@H](C)CC)[C@@H](C)CC)[C@@H](C)O)C(N)=O [compound 220],Emax,[1],81%
same,Emax,[2],98%
CC[C@H](C)[C@H](NC(=O)[C@@H](NC(=O)[C@H](CC(=O)O)NC(=O)[C@H](CC(C)C)NC(=O)[C@H](CC(C)C)NC(=O)[C@H](CC(C)C)NC(=O)[C@H](CCCNC(=N)N)NC(=O)[C@H](CC(N)=O)NC(=O)[C@H](CC(N)=O)NC(=O)[C@H](C)NC(=O)[C@H](C)NC(=O)[C@H](CCC(N)=O)NC(=O)[C@H](CCC(N)=O)NC(=O)[C@H](CCCCN)NC(=O)[C@H](CCC(=O)O)NC(=O)[C@H](CCCCN)NC(=O)[C@H](CCC(=O)O)NC(=O)[C@H](CCC(N)=O)NC(=O)[C@H](CCCCN)NC(=O)[C@H](CCC(=O)O)NC(=O)[C@@H](NC(=O)[C@H](CCC(=O)O)NC(=O)[C@@H](NC(=O)[C@H](CCSC)NC(=O)[C@H](CCCCN)NC(=O)[C@H](CCCNC(=N)N)NC(=O)[C@H](CC(C)C)NC(=O)[C@H](CC(C)C)NC(=O)[C@H](C)NC(=O)[C@H](Cc1ccc(O)cc1)NC(=O)[C@@H]1CCCN1C(=O)[C@H](CC(C)C)NC(=O)[C@H](CC(=O)O)NC(=O)[C@@H](NC(=O)[C@H](CO)NC(=O)[C@@H](NC(=O)[C@@H]1CCCN1C(=O)[C@@H]1CCCN1C(=O)CNC(=O)[C@@H]1CCC(=O)N1)[C@@H](C)CC)[C@@H](C)CC)[C@@H](C)CC)[C@@H](C)CC)[C@@H](C)O)C(N)=O [compound 309],Emax,[1],96.3%
same,Emax,[2],99.9%
CC[C@H](C)[C@H](NC(=O)[C@@H](NC(=O)[C@H](CC(=O)O)NC(=O)[C@H](CC(C)C)NC(=O)[C@H](CC(C)C)NC(=O)[C@H](CC(C)C)NC(=O)[C@H](CCCNC(=N)N)NC(=O)[C@H](CC(N)=O)NC(=O)[C@H](CC(N)=O)NC(=O)[C@H](C)NC(=O)[C@H](C)NC(=O)[C@H](CCC(N)=O)NC(=O)[C@H](CCC(N)=O)NC(=O)[C@H](CCCCN)NC(=O)[C@H](CCC(=O)O)NC(=O)[C@H](CCCCN)NC(=O)[C@H](CCC(=O)O)NC(=O)[C@H](CCC(N)=O)NC(=O)[C@H](CCCCN)NC(=O)[C@H](CCC(=O)O)NC(=O)[C@@H](NC(=O)[C@H](CCC(=O)O)NC(=O)[C@@H](NC(=O)[C@H](CCSC)NC(=O)[C@H](CCCCN)NC(=O)[C@H](CCCNC(=N)N)NC(=O)[C@H](CC(C)C)NC(=O)[C@H](CC(C)C)NC(=O)[C@H](Cc1ccc(O)cc1)NC(=O)[C@H](C)NC(=O)[C@@H]1CCCN1C(=O)[C@H](CC(C)C)NC(=O)[C@H](CC(=O)O)NC(=O)[C@@H](NC(=O)[C@H](CO)NC(=O)[C@@H](NC(=O)[C@@H]1CCCN1C(=O)[C@@H]1CCCN1C(=O)CNC(=O)[C@@H]1CCC(=O)N1)[C@@H](C)CC)[C@@H](C)CC)[C@@H](C)CC)[C@@H](C)CC)[C@@H](C)O)C(N)=O [compound 32],Emax,[1],94%
same,Emax,[2],98%
CC[C@H](C)[C@H](NC(=O)[C@@H](NC(=O)[C@H](CC(=O)O)NC(=O)[C@H](CC(C)C)NC(=O)[C@H](CC(C)C)NC(=O)[C@H](CC(C)C)NC(=O)[C@H](CCCNC(=N)N)NC(=O)[C@H](CC(N)=O)NC(=O)[C@H](CC(N)=O)NC(=O)[C@H](C)NC(=O)[C@H](C)NC(=O)[C@H](CCC(N)=O)NC(=O)[C@H](CCC(N)=O)NC(=O)[C@H](CCCCN)NC(=O)[C@H](CCC(=O)O)NC(=O)[C@H](CCCCN)NC(=O)[C@H](CCC(=O)O)NC(=O)[C@H](CCC(N)=O)NC(=O)[C@H](CCCCN)NC(=O)[C@H](CCC(=O)O)NC(=O)[C@@H](NC(=O)[C@H](CCC(=O)O)NC(=O)[C@@H](NC(=O)[C@H](CCSC)NC(=O)[C@H](CCCCN)NC(=O)[C@H](CCCNC(=N)N)NC(=O)[C@H](CC(C)C)NC(=O)[C@H](CC(C)C)NC(=O)CNC(=O)[C@@H](NC(=O)[C@@H]1CCCN1C(=O)[C@H](CC(C)C)NC(=O)[C@H](CC(=O)O)NC(=O)[C@@H](NC(=O)[C@H](CO)NC(=O)[C@@H](NC(=O)[C@@H]1CCCN1C(=O)[C@@H]1CCCN1C(=O)CNC(=O)[C@@H]1CCC(=O)N1)[C@@H](C)CC)[C@@H](C)CC)[C@@H](C)CC)[C@@H](C)CC)[C@@H](C)CC)[C@@H](C)O)C(N)=O [compound 75],Emax,[1],5%
same,Emax,[2],52%
CC[C@H](C)[C@H](NC(=O)[C@@H](NC(=O)[C@H](CC(=O)O)NC(=O)[C@H](CC(C)C)NC(=O)[C@H](CC(C)C)NC(=O)[C@H](CC(C)C)NC(=O)[C@H](CCCNC(=N)N)NC(=O)[C@H](CC(N)=O)NC(=O)[C@H](CC(N)=O)NC(=O)[C@H](C)NC(=O)[C@H](C)NC(=O)[C@H](CCC(N)=O)NC(=O)[C@H](CCC(N)=O)NC(=O)[C@H](CCCCN)NC(=O)[C@H](CCC(=O)O)NC(=O)[C@H](CCCCN)NC(=O)[C@H](CCC(=O)O)NC(=O)[C@H](CCC(N)=O)NC(=O)[C@H](CCCCN)NC(=O)[C@H](CCC(=O)O)NC(=O)[C@@H](NC(=O)[C@H](CCC(=O)O)NC(=O)[C@@H](NC(=O)[C@H](CCSC)NC(=O)[C@H](CCCCN)NC(=O)[C@H](CCCNC(=N)N)NC(=O)[C@H](CC(C)C)NC(=O)[C@H](CC(C)C)NC(=O)[C@@H](NC(=O)[C@H](Cc1ccc(O)cc1)NC(=O)[C@@H]1CCCN1C(=O)[C@H](CC(C)C)NC(=O)[C@H](CC(=O)O)NC(=O)[C@@H](NC(=O)[C@H](CO)NC(=O)[C@@H](NC(=O)[C@@H]1CCCN1C(=O)[C@@H]1CCCN1C(=O)CNC(=O)[C@@H]1CCC(=O)N1)[C@@H](C)CC)[C@@H](C)CC)[C@@H](C)O)[C@@H](C)CC)[C@@H](C)CC)[C@@H](C)O)C(N)=O [compound 200],EC50,[1]; CRF1R EC50,189 nM
same,Emax,[1],99%
same,EC50,[2],8.8 nM
same,Emax,[2],100%
CC[C@H](C)[C@H](NC(=O)[C@@H](NC(=O)[C@H](CC(=O)O)NC(=O)[C@H](CC(C)C)NC(=O)[C@H](CC(C)C)NC(=O)[C@H](CC(C)C)NC(=O)[C@H](C)NC(=O)[C@H](CC(N)=O)NC(=O)[C@H](CC(N)=O)NC(=O)[C@H](C)NC(=O)[C@H](C)NC(=O)[C@H](CCC(N)=O)NC(=O)[C@H](CCC(N)=O)NC(=O)[C@H](CCCCN)NC(=O)[C@H](CCC(=O)O)NC(=O)[C@H](CCCCN)NC(=O)[C@H](CCC(=O)O)NC(=O)[C@H](CCC(N)=O)NC(=O)[C@H](CCCCN)NC(=O)[C@H](CCC(=O)O)NC(=O)[C@@H](NC(=O)[C@H](CCC(=O)O)NC(=O)[C@@H](NC(=O)[C@H](CCSC)NC(=O)[C@H](CCCCN)NC(=O)[C@H](CCCNC(=N)N)NC(=O)[C@H](CC(C)C)NC(=O)[C@H](CC(C)C)NC(=O)[C@H](Cc1c[nH]cn1)NC(=O)[C@H](Cc1ccccc1)NC(=O)[C@@H]1CCCN1C(=O)[C@H](CC(C)C)NC(=O)[C@H](CC(=O)O)NC(=O)[C@@H](NC(=O)[C@H](CO)NC(=O)[C@@H](NC(=O)[C@@H]1CCCN1C(=O)[C@@H]1CCCN1C(=O)CNC(=O)[C@@H]1CCC(=O)N1)[C@@H](C)CC)[C@@H](C)CC)[C@@H](C)CC)[C@@H](C)CC)[C@@H](C)O)C(N)=O [compound 228],Emax,[1],100%
same,Emax,[2],100%
CC[C@H](C)[C@H](NC(=O)[C@@H](NC(=O)[C@H](C)NC(=O)[C@H](CC(C)C)NC(=O)[C@H](CC(C)C)NC(=O)[C@H](CC(C)C)NC(=O)[C@H](C)NC(=O)[C@H](CC(N)=O)NC(=O)[C@H](CC(N)=O)NC(=O)[C@H](C)NC(=O)[C@H](C)NC(=O)[C@H](CCC(N)=O)NC(=O)[C@H](CCC(N)=O)NC(=O)[C@H](CCCCN)NC(=O)[C@H](CCC(=O)O)NC(=O)[C@H](CCCCN)NC(=O)[C@H](CCC(=O)O)NC(=O)[C@H](CCC(N)=O)NC(=O)[C@H](CCCCN)NC(=O)[C@H](CCC(=O)O)NC(=O)[C@@H](NC(=O)[C@H](CCC(=O)O)NC(=O)[C@@H](NC(=O)[C@H](CCSC)NC(=O)[C@H](CCCCN)NC(=O)[C@H](CCCNC(=N)N)NC(=O)[C@H](CC(C)C)NC(=O)[C@H](CC(C)C)NC(=O)[C@H](Cc1ccccc1)NC(=O)[C@H](Cc1ccccc1)NC(=O)[C@@H]1CCCN1C(=O)[C@H](CC(C)C)NC(=O)[C@H](CC(=O)O)NC(=O)[C@@H](NC(=O)[C@H](CO)NC(=O)[C@@H](NC(=O)[C@@H]1CCCN1C(=O)[C@@H]1CCCN1C(=O)CNC(=O)[C@@H]1CCC(=O)N1)[C@@H](C)CC)[C@@H](C)CC)[C@@H](C)CC)[C@@H](C)CC)[C@@H](C)O)C(N)=O [compound 319],Emax,[1],88.3%
same,Emax,[2],95%
